Results as given in PubChem BioAssay AID1671193 (National Center for Advancing Translational Sciences (NCATS), 2021).
Where “and” joins values, the source holds several entries; their conditions need not be identical. Equal values may be shown once. The entries are a selection whose mix differs from that of the whole data set. Results filed as inconclusive are left out. Calls of active or inactive are those of the source. The call rests on the fitted dose curve; in most records, active means well fitted cell-killing curve with a large enough effect; inconclusive means small, poorly fitted or top-dose-only effect, or effect the other way; inactive means flat fitted curve, though single readings scatter.

Experiment: GF-AFC viability counterscreen for inhibitors of alpha-synuclein gene (SNCA) expression; further: nearly all actives have a fitted effect of over 30% in size
Details: HEK-293-SNCA-luc viability, GF-AFC fluorescence, 24 h; at 57.1 µM (top of the series) unless noted
Description: Assay Submitter (PI): Daniel R. Scoles Ph.D.
Department of Neurology, University of Utah, Salt Lake City, Utah
Accumulation of alpha-synuclein is a main underlying pathological feature of Parkinson's disease (PD) and alpha-synucleinopathies, for which lowering expression of the alpha-synuclein gene (SNCA) is a potential therapeutic avenue. Using a cell-based luciferase reporter of SNCA expression we performed a quantitative high throughput screen (qHTS) of 155,885 compounds in dose response. The screening assay was generated using genome editing to insert the luciferase gene downstream and in frame of the SNCA gene in HEK-293 cells (1). A viability counterscreen using GF-AFC was used to eliminate cytotoxic and false positive compounds. After in silico analysis (clustering, removal of frequent hitter nuisance chemotypes), inhibitor compounds from the primary screen were selected for follow up and re-tested at 11-doses in the SNCA-luc cells (luciferase and GF-AFC confirmation), and in CMV-luc expressing cell line to flag general transcriptional repressors.
Described herein are the results of the GF-AFC viability counterscreen for SNCA inhibitors; inactivity (no decrease in fluorescence signal, not cytotoxic) is the desired output for this assay.
1. Dansithong, W., Paul, S., Scoles, D. R., Pulst, S. M., and Huynh, D. P. (2015) Generation of SNCA Cell Models Using Zinc Finger Nuclease (ZFN) Technology for Efficient High-Throughput Drug Screening. PLoS ONE 10, e0136930.
SEQUENCE No. (e.g., 1, 2, 3, etc.); […] (e.g., Cells, Incubation, Reagent, etc.); VALUE; DESCRIPTION
1; Cells; 4 uL; Dispense 1500 HEK-293-SNCA-luc cells/well into Greiner 1536-well white / solid bottom tissue culture treated plate. The plate was covered with metal lids with gas-exchange holes.
2; Incubate; 24 hours; Incubate at 37C, 5% CO2, 95% RH.
3; Compounds; 23 nL; Compounds and controls were transferred via a Kalypsys Pin Tool (Wako USA) equipped with a 1536-slotted pin array. The plate was covered with metal lids with gas-exchange holes.
4; Incubate; 24 hours; Incubate at 37C, 5% CO2, 95% RH.
5; Dispense; 1 uL; Dispense Gly-Phe-7-amino-4-trifluoromethylcoumarin (GF-AFC, prepared at 125 uM in PBS) was added. The plate was covered with metal lids with gas-exchange holes.
6; Incubate; 30 min; Incubate at 37C, 5% CO2.
7; Detector; Fluorescence; Measure fluorescence with ViewLux microplate reader (PerkinElmer) equipped with 405/10 excitation and 540/25 emission filters.
8; Dispense; 3 uL; Dispense ONE-Glo ([…]) lucifase detection reagent was added to each well. Plates were covered with metal lids with gas-exchange holes.
9; Incubate; 15 min; Incubate at room temperature.
10; Detector; Luminescence; Measure luminescence with ViewLux microplate reader (PerkinElmer) equipped with clear filters.
NOTES (numbers refer to sequence above)
1; HEK-293-SNCA-luc were cultured and suspended in phenol-red free DMEM (4.5 g/L glucose, 25 mM HEPES, cat #21063 (Thermo)).
3; Compounds were added to the assay plate in an 11-point intra plate dose response, 1:3 titration in DMSO with a final concentration range of […]. Vehicle-only plates, with DMSO being pin-transferred to every well, were inserted at the beginning of screening runs to confirm expected assay performance. Activity was normalized to wells containing medium only (-100% activity, full inhibition) and SNCA-luc cells treated with DMSO vehicle control (0% activity), contained on the same plate as test samples.
10; Signals were analyzed, and dose-response curves were fit using the Hill equation. Compounds in curve classes -1.1, -1.2, -2.1, -2.2 in the SNCA-luc assay were considered active. Compounds were eliminated from further consideration if also active (curve class -1.1, -1.2, -1.3, -1.4, -2.1, -2.2, -2.3, -2.4) in the GF-AFC cytotoxicity assay.

SMILES	activity change, negative = cytotoxicity
CNCc1cccc(C)n1	inactive: -8.38% [at 87.6 µM]
CN(C(=O)Cc1ccc(Cl)c(Cl)c1)[C@@H]1CC[C@]2(CCCO2)C[C@H]1N1CCCC1	inactive: 0.0972%
CN(C(=O)Cc1ccc(Cl)c(Cl)c1)[C@H]1CC[C@@]2(CCCO2)C[C@@H]1N1CCCC1	inactive: 28.4% [at 23.9 µM]
CN(C(=O)Cc1ccccc1)[C@@H]1CC[C@]2(CCCO2)C[C@H]1N1CCCC1	inactive: -10.2%
CCn1c(=O)n([C@@H]2CCN(CC3CCCCCCC3)C[C@H]2CO)c2ccccc21	inactive: -11.2%
NC(=O)Nc1ccc([As](=O)(O)O)cc1	inactive: -14.2% [at 23.9 µM]
CCn1c(=O)n([C@@H]2CCN(CC3CCCCCCC3)C[C@@H]2CO)c2ccccc21	inactive: 3.28%
CN(CCCl)Cc1cc(Cl)c(NC2=NCCN2)c(Cl)c1	inactive: 3.19%
CNCc1cc2ccccc2o1	inactive: 2.61% [at 87.6 µM]
CN(C)C1(c2ccccc2)CCC2(CC1)OCCc1c2[nH]c2ccc(F)cc12 (stereo unspecified)	inactive: -30.7%
CN(C(=O)Cc1ccccc1)[C@H]1CC[C@@]2(CCCO2)C[C@@H]1N1CCCC1	inactive: -0.0823% [at 23.9 µM]
Cc1cc([N+](=O)[O-])cc([N+](=O)[O-])c1O	inactive: -21.2%
CN(C(=O)Cc1ccc(Cl)c(Cl)c1)[C@@H]1CCCC[C@@H]1N1CCCC1	inactive: -10%
CN(C(=O)Cc1ccc(Cl)c(Cl)c1)[C@H]1CCCC[C@H]1N1CCCC1	inactive: 1.23%
O=C(O[C@H]1CN2CCC1CC2)C1NCc2ccccc2[C@@H]1c1ccccc1 (stereo partly specified)	inactive: -2.62%
CN(C(=O)Cc1ccc(Cl)c(Cl)c1)[C@H]1CCCC[C@@H]1N1CCCC1	inactive: 1.23% and inactive: 5.04%
